In ChEMBL document CHEMBL1127496, “The structural basis of camptothecin interactions with human serum albumin: impact on drug stability” (J Med Chem, 1994) one finds Activity and K data, which are given here for one compound.

By UniProt entry, the sequences of proteins in these tests, tags left out.
UniProt P02768, whole entry: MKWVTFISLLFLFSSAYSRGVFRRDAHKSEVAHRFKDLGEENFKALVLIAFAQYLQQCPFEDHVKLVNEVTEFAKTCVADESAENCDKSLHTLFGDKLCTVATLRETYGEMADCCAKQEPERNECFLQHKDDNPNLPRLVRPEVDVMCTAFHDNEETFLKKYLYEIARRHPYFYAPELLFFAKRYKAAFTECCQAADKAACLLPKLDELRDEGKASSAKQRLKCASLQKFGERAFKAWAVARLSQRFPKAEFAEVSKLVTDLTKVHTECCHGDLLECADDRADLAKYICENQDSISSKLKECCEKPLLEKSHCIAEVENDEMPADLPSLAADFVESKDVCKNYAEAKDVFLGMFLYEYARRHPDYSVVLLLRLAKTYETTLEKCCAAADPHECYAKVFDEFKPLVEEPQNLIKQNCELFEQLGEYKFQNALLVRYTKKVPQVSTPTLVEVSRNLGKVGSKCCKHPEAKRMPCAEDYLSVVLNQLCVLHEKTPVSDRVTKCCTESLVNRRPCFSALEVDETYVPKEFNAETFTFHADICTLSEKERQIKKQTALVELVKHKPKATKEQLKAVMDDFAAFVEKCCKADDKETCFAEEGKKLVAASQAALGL

Structures are written as SMILES.

Data set [1] has as its target T1, Albumin (Homo sapiens, UniProt P02768). The experiment in a line: Binding parameter of the lactone form to human serum albumin; n value. In outline:
(§1)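 Fluorescence lifetime titration in PBS, pH 7.40 ± 0.05, 37 °C. Total drug 20 μM, lactone or carboxylate form (carboxylate stock made by mixing DMSO stock 1:1 with PBS pH 10), titrated with varying HSA. Phase-shift lifetimes at 30 MHz modulation. Free fraction (τ − τB)/(τF − τB) plotted against log amino-acid residue concentration. K and n obtained by nonlinear least-squares fit to K = [Db]/([Df][aa]^n).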

Data set [2] concerns the target T1, Albumin. The experiment in a line: Association constant for the binding of the carboxylate form to human serum albumin;(M aa)e-1. In outline: as §1
Data set [3] addresses T1, Albumin. The experiment in a line: Binding parameter of the carboxylate form to human serum albumin; n value. In outline: as §1
The target of data set [4] is T1, Albumin. The experiment in a line: Association constant for the binding of the lactone form to human serum albumin;(M aa)e-1. A digest of the protocol: as §1

On to `CCc1c2c(nc3ccc(O)cc13)-c1cc3c(c(=O)n1C2)COC(=O)[C@]3(O)CC` [7-ETHYL-10-HYDROXYCAMPTOTHECIN], for which the values for the Activity in data set [1] and in data set [3] were 1.7 and 1.4, respectively. Besides, the values for the K in data set [2] and in data set [4] were 150 1/Maa and 640 1/Maa, respectively.
